From the supplement of paper PMC5998384

Legend:
HeLa Kyoto [1] = experiment: melting temperature (median over replicates), in situ; higher = more thermally stable
HeLa Kyoto [2] = experiment: solubility change mitosis vs G1/S (difference of NP-40 vs SDS log2 ratios) (log2 ratio difference); higher = more soluble in mitosis
HeLa Kyoto [3] = experiment: solubility in G1/S (NP-40 vs SDS abundance) (log2 ratio); higher = more soluble; conditions: cell cycle stage: G1/S
HeLa Kyoto [4] = experiment: thermal stability score vs G1/S (z-score of summed log2 fold changes over temperatures); higher = more thermally stable than in G1/S
[5] = cell cycle stage: early G1 (4.5 h after nocodazole release)
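Throughout, for melting temperature (median over replicates), in situ: HeLa Kyoto cells synchronized by double thymidine or nocodazole block, proteins quantified by TMT10plex mass spectrometry, three independent biological replicates.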
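Throughout, for solubility change mitosis vs G1/S (difference of NP-40 vs SDS log2 ratios): synchronized HeLa Kyoto cells (double thymidine block for G1/S, nocodazole release for mitosis), protein amounts in NP-40 versus SDS lysates quantified by mass spectrometry, three biological replicates.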
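Throughout, for solubility in G1/S (NP-40 vs SDS abundance): HeLa Kyoto cells arrested at G1/S by double thymidine block, proteins quantified by TMT10plex mass spectrometry in mild NP-40 versus SDS extracts, three biological replicates.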
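Throughout, for thermal stability score vs G1/S (z-score of summed log2 fold changes over temperatures): synchronized HeLa Kyoto cells, proteins quantified by TMT10plex mass spectrometry, three biological replicates, mitosis taken 0.5 h after nocodazole release, G1/S directly after double thymidine block.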

| Sequence | melting temperature (HeLa Kyoto [1]; cell cycle stage: G1/S) [°C] | melting temperature (HeLa Kyoto [1]; cell cycle stage: mitosis) [°C] | solubility change mitosis (log2) (HeLa Kyoto [2]) | solubility in G1/S (log2) (HeLa Kyoto [3]) | thermal stability score (HeLa Kyoto [4]; [5]) | thermal stability score (HeLa Kyoto [4]; cell cycle stage: mitosis) |
| --- | --- | --- | --- | --- | --- | --- |
| MAAAAAAAAATNGTGGSSGMEVDAAVVPSVMACGVTGSVSVALHPLVILNISDHWIRMRSQEGRPVQVIGALIGKQEGRNIEVMNSFELLSHTVEEKIIIDKEYYYTKEEQFKQVFKELEFLGWYTTGGPPDPSDIHVHKQVCEIIESPLFLKLNPMTKHTDLPVSVFESVIDIINGEATMLFAELTYTLATEEAERIGVDHVARMTATGSGENSTVAEHLIAQHSAIKMLHSRVKLILEYVKASEAGEVPFNHEILREAYALCHCLPVLSTDKFKTDFYDQCNDVGLMAYLGTITKTCNTMNQFVNKFNVLYDRQGIGRRMRGLFF [COPS6] | 53.4 | 53.5 | -0.126 | 0.222 | 0.373 | -0.101 |
| MAGGVDGPIGIPFPDHSSDILSGLNEQRTQGLLCDVVILVEGREFPTHRSVLAACSQYFKKLFTSGAVVDQQNVYEIDFVSAEALTALMDFAYTATLTVSTANVGDILSAARLLEIPAVSHVCADLLDRQILAADAGADAGQLDLVDQIDQRNLLRAKEYLEFFQSNPMNSLPPAAAAAAASFPWSAFGASDDDLDATKEAVAAAVAAVAAGDCNGLDFYGPGPPAERPPTGDGDEGDSNPGLWPERDEDAPTGGLFPPPVAPPAATQNGHYGRGGEEEAASLSEAAPEPGDSPGFLSGAAEGEDGDGPDVDGLAASTLLQQMMSSVGRAGAAAGDSDEESRADDKGVMDYYLKYFSGAHDGDVYPAWSQKVEKKIRAKAFQKCPICEKVIQGAGKLPRHIRTHTGEKPYECNICKVRFTRQDKLKVHMRKHTGEKPYLCQQCGAAFAHNYDLKNHMRVHTGLRPYQCDSCCKTFVRSDHLHRHLKKDGCNGVPSRRGRKPRVRGGAPDPSPGATATPGAPAQPSSPDARRNGQEKHFKDEDEDEDVASPDGLGRLNVAGAGGGGDSGGGPGAATDGNFTAGLA [ZBTB7A] | 50.7 | 53.3 | 0.265 | -0.00404 | 1.55 | 2.56 |
| MAGRRAQTGSAPPRPAAPHPRPASRAFPQHCRPRDAERPPSPRSPLMPGCELPVGTCPDMCPAAERAQREREHRLHRLEVVPGCRQDPPRADPQRAVKEYSRPAAGKPRPPPSQLRPPSVLLATVRYLAGEVAESADIARAEVASFVADRLRAVLLDLALQGAGDAEAAVVLEAALATLLTVVARLGPDAARGPADPVLLQAQVQEGFGSLRRCYARGAGPHPRQPAFQGLFLLYNLGSVEALHEVLQLPAALRACPPLRKALAVDAAFREGNAARLFRLLQTLPYLPSCAVQCHVGHARREALARFARAFSTPKGQTLPLGFMVNLLALDGLREARDLCQAHGLPLDGEERVVFLRGRYVEEGLPPASTCKVLVESKLRGRTLEEVVMAEEEDEGTDRPGSPA [SAC3D1] |  | 50.4 | 0.0556 | 0.195 | 0.287 | 0.509 |
| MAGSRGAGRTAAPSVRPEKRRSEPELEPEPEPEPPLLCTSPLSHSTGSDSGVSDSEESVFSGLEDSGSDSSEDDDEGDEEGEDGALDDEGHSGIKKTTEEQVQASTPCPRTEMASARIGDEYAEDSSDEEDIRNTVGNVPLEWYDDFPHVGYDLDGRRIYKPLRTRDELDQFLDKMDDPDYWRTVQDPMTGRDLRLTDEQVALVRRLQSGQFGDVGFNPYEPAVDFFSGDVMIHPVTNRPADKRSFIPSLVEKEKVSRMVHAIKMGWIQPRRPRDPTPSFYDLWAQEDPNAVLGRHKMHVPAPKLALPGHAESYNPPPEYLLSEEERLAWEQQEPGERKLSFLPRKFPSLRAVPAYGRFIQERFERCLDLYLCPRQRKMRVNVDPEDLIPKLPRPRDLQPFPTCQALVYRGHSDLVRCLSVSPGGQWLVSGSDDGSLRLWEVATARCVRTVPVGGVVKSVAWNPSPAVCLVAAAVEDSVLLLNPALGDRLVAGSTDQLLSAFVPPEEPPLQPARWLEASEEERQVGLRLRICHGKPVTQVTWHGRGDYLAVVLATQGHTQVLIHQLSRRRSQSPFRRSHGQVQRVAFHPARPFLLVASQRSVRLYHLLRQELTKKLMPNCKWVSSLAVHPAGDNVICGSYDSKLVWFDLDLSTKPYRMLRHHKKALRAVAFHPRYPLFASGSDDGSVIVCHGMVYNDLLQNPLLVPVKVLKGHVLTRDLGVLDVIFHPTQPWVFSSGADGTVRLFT [BOP1] | 48.2 | 50 | 0.79 | -1.33 | 0.929 | 2.45 |
| MASAARLTMMWEEVTCPICLDPFVEPVSIECGHSFCQECISQVGKGGGSVCPVCRQRFLLKNLRPNRQLANMVNNLKEISQEAREGTQGERCAVHGERLHLFCEKDGKALCWVCAQSRKHRDHAMVPLEEAAQEYQEKLQVALGELRRKQELAEKLEVEIAIKRADWKKTVETQKSRIHAEFVQQKNFLVEEEQRQLQELEKDEREQLRILGEKEAKLAQQSQALQELISELDRRCHSSALELLQEVIIVLERSESWNLKDLDITSPELRSVCHVPGLKKMLRTCAVHITLDPDTANPWLILSEDRRQVRLGDTQQSIPGNEERFDSYPMVLGAQHFHSGKHYWEVDVTGKEAWDLGVCRDSVRRKGHFLLSSKSGFWTIWLWNKQKYEAGTYPQTPLHLQVPPCQVGIFLDYEAGMVSFYNITDHGSLIYSFSECAFTGPLRPFFSPGFNDGGKNTAPLTLCPLNIGSQGSTDY [TRIM21] | 50.5 | 50.8 | -0.198 | 0.134 | -2.64 | -1.49 |
| MDEDVLTTLKILIIGESGVGKSSLLLRFTDDTFDPELAATIGVDFKVKTISVDGNKAKLAIWDTAGQERFRTLTPSYYRGAQGVILVYDVTRRDTFVKLDNWLNELETYCTRNDIVNMLVGNKIDKENREVDRNEGLKFARKHSMLFIEASAKTCDGVQCAFEELVEKIIQTPGLWESENQNKGVKLSHREEGQGGGACGGYCSVL [RAB18] | 56.8 | 56.7 | -0.12 | -0.0437 | -1.6 | -1.78 |
| MEAENAGSYSLQQAQAFYTFPFQQLMAEAPNMAVVNEQQMPEEVPAPAPAQEPVQEAPKGRKRKPRTTEPKQPVEPKKPVESKKSGKSAKSKEKQEKITDTFKVKRKVDRFNGVSEAELLTKTLPDILTFNLDIVIIGINPGLMAAYKGHHYPGPGNHFWKCLFMSGLSEVQLNHMDDHTLPGKYGIGFTNMVERTTPGSKDLSSKEFREGGRILVQKLQKYQPRIAVFNGKCIYEIFSKEVFGVKVKNLEFGLQPHKIPDTETLCYVMPSSSARCAQFPRAQDKVHYYIKLKDLRDQLKGIERNMDVQEVQYTFDLQLAQEDAKKMAVKEEKYDPGYEAAYGGAYGENPCSSEPCGFSSNGLIESVELRGESAFSGIPNGQWMTQSFTDQIPSFSNHCGTQEQEEESHA [TDG] |  |  | -0.153 | 0.143 |  |  |
| MEELEQGLLMQPWAWLQLAENSLLAKVFITKQGYALLVSDLQQVWHEQVDTSVVSQRAKELNKRLTAPPAAFLCHLDNLLRPLLKDAAHPSEATFSCDCVADALILRVRSELSGLPFYWNFHCMLASPSLVSQHLIRPLMGMSLALQCQVRELATLLHMKDLEIQDYQESGATLIRDRLKTEPFEENSFLEQFMIEKLPEACSIGDGKPFVMNLQDLYMAVTTQEVQVGQKHQGAGDPHTSNSASLQGIDSQCVNQPEQLVSSAPTLSAPEKESTGTSGPLQRPQLSKVKRKKPRGLFS [NHEJ1] |  | 54.7 |  |  |  |  |
| MGCTLSAEERAALERSKAIEKNLKEDGISAAKDVKLLLLGAGESGKSTIVKQMKIIHEDGFSGEDVKQYKPVVYSNTIQSLAAIVRAMDTLGIEYGDKERKADAKMVCDVVSRMEDTEPFSAELLSAMMRLWGDSGIQECFNRSREYQLNDSAKYYLDSLDRIGAADYQPTEQDILRTRVKTTGIVETHFTFKNLHFRLFDVGGQRSERKKWIHCFEDVTAIIFCVALSGYDQVLHEDETTNRMHESLMLFDSICNNKFFIDTSIILFLNKKDLFGEKIKKSPLTICFPEYTGPNTYEDAAAYIQAQFESKNRSPNKEIYCHMTCATDTNNIQVVFDAVTDIIIANNLRGCGLY [GNAO1] | 55.2 | 55.5 | -0.188 | -0.449 | -1.81 | -1.86 |
| MPHSSLHPSIPCPRGHGAQKAALVLLSACLVTLWGLGEPPEHTLRYLVLHLASLQLGLLLNGVCSLAEELRHIHSRYRGSYWRTVRACLGCPLRRGALLLLSIYFYYSLPNAVGPPFTWMLALLGLSQALNILLGLKGLAPAEISAVCEKGNFNVAHGLAWSYYIGYLRLILPELQARIRTYNQHYNNLLRGAVSQRLYILLPLDCGVPDNLSMADPNIRFLDKLPQQTGDHAGIKDRVYSNSIYELLENGQRAGTCVLEYATPLQTLFAMSQYSQAGFSREDRLEQAKLFCRTLEDILADAPESQNNCRLIAYQEPADDSSFSLSQEVLRHLRQEEKEEVTVGSLKTSAVPSTSTMSQEPELLISGMEKPLPLRTDFS [TMEM173] |  |  | 0.0278 | -0.0513 |  |  |
| MSVELEEALPVTTAEGMAKKVTKAGGSAALSPSKKRKNSKKKNQPGKYSQLVVETIRRLGERNGSSLAKIYTEAKKVPWFDQQNGRTYLKYSIKALVQNDTLLQVKGTGANGSFKLNRKKLEGGGERRGAPAAATAPAPTAHKAKKAAPGAAGSRRADKKPARGQKPEQRSHKKGAGAKKDKGGKAKKTAAAGGKKVKKAAKPSVPKVPKGRK [H1FX] | 55.6 | 52.7 | 0.735 | -0.556 |  |  |
| MTDTAEAVPKFEEMFASRFTENDKEYQEYLKRPPESPPIVEEWNSRAGGNQRNRGNRLQDNRQFRGRDNRWGWPSDNRSNQWHGRSWGNNYPQHRQEPYYPQQYGHYGYNQRPPYGYY [FAM103A1] |  |  | 0.551 | -0.192 |  |  |
